# Tested on: polyclonal antibody raised to Immunogen IV
# Test: Competitive biochip immunoassay of pyrrolidinophenones and potential cross-reactants (Evidence Investigator)
# Type: binding, sheep
smiles,measurement,value
CN1CC[C@]23c4c5ccc(O)c4O[C@H]2C(=O)CC[C@H]3[C@H]1C5 [Hydromorphone],% Cross-reactivity,<1%

# — US20130210167A1, “IMMUNOASSAY FOR PYRROLIDINOPHENONES” (RANDOX LABORATORIES LIMITED, priority 2012, published 2013)
